From PMC6504873, “High-throughput screening of the Plasmodium falciparum cGMP-dependent protein kinase identified a thiazole scaffold which kills erythrocytic and sexual stage parasites” (Scientific Reports, 2019)
Read-outs that look alike come from different tables or passages of the source.

Sequences of proteins named here, by UniProt entry; tags and fusion partners are left off.
UniProt O00329, whole entry: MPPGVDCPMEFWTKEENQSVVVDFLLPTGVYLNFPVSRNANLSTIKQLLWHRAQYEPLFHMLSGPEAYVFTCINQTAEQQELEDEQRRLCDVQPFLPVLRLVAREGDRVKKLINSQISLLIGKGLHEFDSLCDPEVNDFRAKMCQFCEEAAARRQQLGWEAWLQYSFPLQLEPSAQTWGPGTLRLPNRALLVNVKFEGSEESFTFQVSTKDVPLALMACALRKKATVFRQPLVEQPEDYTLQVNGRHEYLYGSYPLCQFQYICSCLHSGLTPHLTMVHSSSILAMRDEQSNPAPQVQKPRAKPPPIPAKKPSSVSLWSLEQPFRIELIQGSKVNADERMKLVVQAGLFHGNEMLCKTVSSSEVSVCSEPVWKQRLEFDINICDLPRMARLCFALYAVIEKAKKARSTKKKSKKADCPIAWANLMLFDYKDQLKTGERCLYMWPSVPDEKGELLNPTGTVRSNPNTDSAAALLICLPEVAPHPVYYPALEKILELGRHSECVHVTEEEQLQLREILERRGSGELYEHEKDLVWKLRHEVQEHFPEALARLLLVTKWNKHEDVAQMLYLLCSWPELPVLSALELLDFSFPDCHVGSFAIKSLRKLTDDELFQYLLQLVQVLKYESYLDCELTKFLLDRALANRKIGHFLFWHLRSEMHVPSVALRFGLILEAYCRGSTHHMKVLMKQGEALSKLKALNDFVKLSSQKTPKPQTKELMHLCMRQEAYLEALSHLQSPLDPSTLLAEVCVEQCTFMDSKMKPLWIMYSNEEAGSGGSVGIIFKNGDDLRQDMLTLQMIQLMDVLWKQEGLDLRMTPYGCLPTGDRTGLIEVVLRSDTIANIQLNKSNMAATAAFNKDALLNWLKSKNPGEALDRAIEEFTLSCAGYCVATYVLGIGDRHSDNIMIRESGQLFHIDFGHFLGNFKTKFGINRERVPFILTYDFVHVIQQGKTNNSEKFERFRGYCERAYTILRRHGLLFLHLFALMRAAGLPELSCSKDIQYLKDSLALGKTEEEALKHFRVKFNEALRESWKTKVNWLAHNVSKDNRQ
UniProt P06239, whole entry: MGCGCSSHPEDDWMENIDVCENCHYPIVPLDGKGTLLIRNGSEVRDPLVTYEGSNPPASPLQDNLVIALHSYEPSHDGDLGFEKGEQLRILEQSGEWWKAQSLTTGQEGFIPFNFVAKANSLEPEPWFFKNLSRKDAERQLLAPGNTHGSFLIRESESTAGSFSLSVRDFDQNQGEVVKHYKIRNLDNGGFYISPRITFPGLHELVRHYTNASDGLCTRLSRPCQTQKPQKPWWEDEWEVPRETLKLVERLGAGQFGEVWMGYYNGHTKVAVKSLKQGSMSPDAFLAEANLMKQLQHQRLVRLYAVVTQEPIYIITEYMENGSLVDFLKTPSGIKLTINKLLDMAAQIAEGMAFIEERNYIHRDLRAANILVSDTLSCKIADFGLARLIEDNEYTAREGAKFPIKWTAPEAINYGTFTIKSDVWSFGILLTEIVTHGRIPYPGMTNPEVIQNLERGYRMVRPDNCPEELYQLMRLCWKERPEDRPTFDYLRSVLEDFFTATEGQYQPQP
UniProt Q96GD4, whole entry: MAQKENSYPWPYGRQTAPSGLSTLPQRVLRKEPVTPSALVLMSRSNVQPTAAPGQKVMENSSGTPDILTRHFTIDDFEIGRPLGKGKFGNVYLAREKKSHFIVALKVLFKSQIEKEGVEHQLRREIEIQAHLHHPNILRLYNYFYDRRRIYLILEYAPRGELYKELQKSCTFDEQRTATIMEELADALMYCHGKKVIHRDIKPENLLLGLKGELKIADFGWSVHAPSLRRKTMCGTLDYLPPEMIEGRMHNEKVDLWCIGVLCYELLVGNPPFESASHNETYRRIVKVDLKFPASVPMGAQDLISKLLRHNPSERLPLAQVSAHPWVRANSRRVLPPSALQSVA
UniProt P27986, whole entry partner: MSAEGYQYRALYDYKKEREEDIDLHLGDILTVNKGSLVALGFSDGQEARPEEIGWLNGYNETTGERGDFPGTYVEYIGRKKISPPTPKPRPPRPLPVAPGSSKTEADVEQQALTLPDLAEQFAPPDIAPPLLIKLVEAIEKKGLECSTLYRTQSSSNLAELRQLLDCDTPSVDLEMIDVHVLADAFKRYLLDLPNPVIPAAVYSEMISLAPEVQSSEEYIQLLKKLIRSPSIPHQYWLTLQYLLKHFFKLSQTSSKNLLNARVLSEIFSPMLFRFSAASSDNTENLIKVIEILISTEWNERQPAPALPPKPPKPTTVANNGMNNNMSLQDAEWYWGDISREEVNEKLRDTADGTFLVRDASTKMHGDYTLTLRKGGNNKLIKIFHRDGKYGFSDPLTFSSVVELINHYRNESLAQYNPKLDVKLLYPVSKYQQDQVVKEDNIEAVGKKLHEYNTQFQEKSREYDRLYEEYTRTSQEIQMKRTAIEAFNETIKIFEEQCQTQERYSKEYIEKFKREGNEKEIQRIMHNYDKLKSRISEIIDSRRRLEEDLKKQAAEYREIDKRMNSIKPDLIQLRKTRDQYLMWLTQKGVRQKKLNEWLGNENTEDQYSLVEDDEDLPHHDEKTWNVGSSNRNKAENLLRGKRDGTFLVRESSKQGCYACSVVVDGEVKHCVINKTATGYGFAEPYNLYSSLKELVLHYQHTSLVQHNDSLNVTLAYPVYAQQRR

What was measured:
PI3KD = PI3KD (Homo sapiens, UniProt O00329); experiment: Preliminary safety test on human PI3KD kinase; type: biochemical; conditions: read-out: PI3KD
HepG2 cells = experiment: Cytotoxicity assay (CellTiter-Glo); type: cell-based, human; conditions: read-out: HepG2; for IC50: HepG2 cytotoxicity
LCK = LCK (Homo sapiens, UniProt P06239); experiment: Preliminary safety test on human LCK kinase; type: biochemical; conditions: read-out: LCK
AuroraB = AuroraB (Homo sapiens, UniProt Q96GD4); experiment: Preliminary safety test on human AuroraB kinase; type: biochemical; conditions: read-out: AuroraB
pKa (ionisation profile) = conditions: measures the ionisation profile
[1] = Supplementary Table 2, cytotoxicity

With `NC(=O)c1c(-c2ccc3c(c2)OCO3)nn(-c2ccc(F)cc2F)c1N` the IC50 (PI3KD; tested form: TFA) was over 50.1 µM, the IC50 (HepG2 cells; tested form: TFA) was over 100 µM and the IC50 (LCK; tested form: TFA) was 2.5 µM. It also gave an IC50 (AuroraB; tested form: TFA) of over 31.6 µM.

`Nc1nccc(-c2sc(N)nc2-c2cccc(NS(=O)(=O)c3c(F)cccc3F)c2F)n1` showed an IC50 (PI3KD) of over 50.1 µM, an IC50 (HepG2 cells) of over 100 µM and an IC50 (LCK) of 0.5 µM. The IC50 (AuroraB) was 0.251 µM.

`CC1(c2nc(-c3cccc(NS(=O)(=O)c4ccoc4)c3F)c(-c3ccnc(N)n3)s2)CCNCC1` showed a pKa (pKa (ionisation profile)) of 9.8, an EC50 (HepG2 cells; [1]) of 50.1 µM and an EC50 (HepG2 cells; Table 2, cytotoxicity, 48 h) of 50 µM.

Work on `O=C(O)c1cccc(-c2nn3ccccc3c2-c2ccncc2)c1` yielded an IC50 (PI3KD) of over 50.1 µM, an IC50 (HepG2 cells) of over 100 µM and an IC50 (LCK) of over 31.6 µM. It also gave an IC50 (AuroraB) of over 31.6 µM.

In the case of `CC(=O)NCC(C)(C)c1nc(-c2ccc(Cl)c(O)c2)c(-c2ccncc2)[nH]1`, the IC50 (PI3KD; tested form: HCl) is reported as over 50.1 µM, the IC50 (HepG2 cells; tested form: HCl) is reported as 7.9 µM and the IC50 (LCK; tested form: HCl) is reported as 1.6 µM. The IC50 (AuroraB; tested form: HCl) was over 31.6 µM.

`O=C(O)c1ccc(-c2nc(-c3cccc(O)c3)c(-c3ccncc3)[nH]2)cc1` showed an IC50 (PI3KD) of over 50.1 µM, an IC50 (HepG2 cells) of over 100 µM and an IC50 (LCK) of 10 µM. The IC50 (AuroraB) was 12.6 µM.

Work on `CC(C)(C(=O)N1CCCC1)c1nc(-c2ccc(Cl)c(Cl)c2)c(-c2ccncc2)[nH]1` yielded an IC50 (PI3KD; tested form: HCl) of over 50.1 µM, an IC50 (HepG2 cells; tested form: HCl) of 31.6 µM and an IC50 (LCK; tested form: HCl) of 3.2 µM. For the same compound, the IC50 (AuroraB; tested form: HCl) was over 31.6 µM.

With `CC(CO)Nc1nccc(-c2c(-c3ccccc3)nn3c2COCC3)n1` (centres unmarked) the IC50 (PI3KD) was over 50.1 µM, the IC50 (HepG2 cells) was over 100 µM and the IC50 (LCK) was over 31.6 µM. For the same compound, the IC50 (AuroraB) was 20 µM.

`FC(F)(F)c1cccc(-c2n[nH]cc2-c2ccncc2)c1` gave an IC50 (PI3KD) of over 50.1 µM, an IC50 (HepG2 cells) of over 100 µM and an IC50 (LCK) of 20 µM. For the same compound, the IC50 (AuroraB) was over 31.6 µM.

Work on `CC(C)c1nc(-c2cccc(C(F)(F)F)c2)c(-c2ccnc(NCCO)n2)[nH]1` yielded an IC50 (PI3KD) of over 50.1 µM, an IC50 (HepG2 cells) of over 100 µM and an IC50 (LCK) of over 31.6 µM. For the same compound, the IC50 (AuroraB) was over 31.6 µM.

`CC(C)(CN)c1nc(-c2ccc(Cl)c(Cl)c2)c(-c2ccncc2)[nH]1` gave an IC50 (PI3KD; tested form: HCl) of over 50.1 µM, an IC50 (HepG2 cells; tested form: HCl) of 50.1 µM and an IC50 (LCK; tested form: HCl) of 5 µM. The IC50 (AuroraB; tested form: HCl) was over 31.6 µM.

Work on `CNc1c(C(N)=O)c(-c2ccc3scnc3c2)nn1-c1cccc(F)c1` yielded an IC50 (PI3KD) of over 50.1 µM, an IC50 (HepG2 cells) of over 100 µM and an IC50 (LCK) of 2 µM. The IC50 (AuroraB) was over 31.6 µM.

In the case of `c1cncc(-c2n[nH]cc2-c2ccncc2)c1`, the IC50 (PI3KD) is reported as over 50.1 µM, the IC50 (HepG2 cells) is reported as over 100 µM and the IC50 (LCK) is reported as over 31.6 µM. It also gave an IC50 (AuroraB) of 25.1 µM.

In the case of `Nc1nccc(-c2[nH]c(C3CCOCC3)nc2-c2cccc(NS(=O)(=O)c3ccoc3)c2F)n1`, the IC50 (PI3KD) is reported as over 50.1 µM, the IC50 (HepG2 cells) is reported as 63.1 µM and the IC50 (LCK) is reported as 0.316 µM. For the same compound, the IC50 (AuroraB) was 1 µM.

In the case of `Nc1[nH]nc(-c2ccncc2)c1-c1ccc2c(c1)OCO2`, the IC50 (PI3KD) is reported as over 50.1 µM, the IC50 (HepG2 cells) is reported as over 100 µM and the IC50 (LCK) is reported as over 31.6 µM. For the same compound, the IC50 (AuroraB) was 15.8 µM.

For `N#Cc1ccc(-c2nc(-c3ccncc3)c(-c3ccncc3)[nH]2)cc1`, the IC50 (PI3KD) was over 50.1 µM, the IC50 (HepG2 cells) was over 100 µM and the IC50 (LCK) was over 31.6 µM. For the same compound, the IC50 (AuroraB) was over 31.6 µM.

Compound `CC(C)(CNS(C)(=O)=O)c1nc(-c2ccc(Cl)c(O)c2)c(-c2ccncc2)[nH]1` has an IC50 (PI3KD; tested form: HCl) of over 50.1 µM, an IC50 (HepG2 cells; tested form: HCl) of 25.1 µM and an IC50 (LCK; tested form: HCl) of 2 µM. The IC50 (AuroraB; tested form: HCl) was 20 µM.

Work on `CC(C)(CNCc1nccs1)c1nc(-c2ccc(Cl)c(O)c2)c(-c2ccncc2)[nH]1` yielded an IC50 (PI3KD; tested form: HCl) of over 50.1 µM, an IC50 (HepG2 cells; tested form: HCl) of 7.9 µM and an IC50 (LCK; tested form: HCl) of 2.5 µM. The IC50 (AuroraB; tested form: HCl) was over 31.6 µM.

With `COc1ccc(-c2nn(C(C)(C)C)c(N)c2C(N)=O)cc1` the IC50 (PI3KD; tested form: TFA) was over 50.1 µM, the IC50 (HepG2 cells; tested form: TFA) was over 100 µM and the IC50 (LCK; tested form: TFA) was 1 µM. It also gave an IC50 (AuroraB; tested form: TFA) of 25.1 µM.

For `CC(C)(NC(=O)c1cccnc1)c1nc(-c2ccc(Cl)c(O)c2)c(-c2ccncc2)[nH]1`, the IC50 (PI3KD; tested form: HCl) was over 50.1 µM, the IC50 (HepG2 cells; tested form: HCl) was 31.6 µM and the IC50 (LCK; tested form: HCl) was 12.6 µM. The IC50 (AuroraB; tested form: HCl) was over 31.6 µM.

`CC(C)(C)n1nc(-c2ccc3cc[nH]c3c2)c(C(N)=O)c1N` gave an IC50 (PI3KD) of over 50.1 µM, an IC50 (HepG2 cells) of 79.4 µM and an IC50 (LCK) of 1.3 µM. The IC50 (AuroraB) was 15.8 µM.

`COc1ccc(-c2n[nH]cc2-c2ccncn2)cc1` gave an IC50 (PI3KD) of over 50.1 µM, an IC50 (HepG2 cells) of over 100 µM and an IC50 (LCK) of over 31.6 µM. The IC50 (AuroraB) was over 31.6 µM.

`CCn1nc(-c2ccc3cc(C(O)c4cccnc4)[nH]c3c2)c(C(N)=O)c1NC` (centres unmarked) gave an IC50 (PI3KD) of over 50.1 µM, an IC50 (HepG2 cells) of 15.8 µM and an IC50 (LCK) of 2 µM. It also gave an IC50 (AuroraB) of 2 µM.

For `CC(C)(C)Cn1nc(-c2ccc3scnc3c2)c(C(N)=O)c1N`, the IC50 (PI3KD) was over 50.1 µM, the IC50 (HepG2 cells) was over 100 µM and the IC50 (LCK) was 1.3 µM. The IC50 (AuroraB) was over 31.6 µM.

`Nc1nccc(-c2sc(N3CCNCC3)nc2-c2cccc(NS(=O)(=O)c3ccoc3)c2Cl)n1` gave a pKa (pKa (ionisation profile)) of 8.8, an EC50 (HepG2 cells; [1]) of 39.8 µM and an EC50 (HepG2 cells; Table 2, cytotoxicity, 48 h) of 39 µM.

`Nc1nccc(-c2sc(C3CCNCC3)nc2-c2cccc(NS(=O)(=O)c3ccoc3)c2F)n1` gave a pKa (pKa (ionisation profile)) of 9.8, an EC50 (HepG2 cells; [1]) of 79.4 µM and an EC50 (HepG2 cells; Table 2, cytotoxicity, 48 h) of 79 µM.

Compound `CC(C)CNc1[nH]nc(-c2ccc3scnc3c2)c1C(N)=O` has an IC50 (PI3KD) of over 50.1 µM, an IC50 (HepG2 cells) of over 100 µM and an IC50 (LCK) of over 31.6 µM. For the same compound, the IC50 (AuroraB) was over 31.6 µM.

With `CCC(C)n1nc(-c2ccc(OCC(C)C)cc2)c(C(N)=O)c1NC` (centres unmarked) the IC50 (PI3KD) was over 50.1 µM, the IC50 (HepG2 cells) was over 100 µM and the IC50 (LCK) was 12.6 µM. For the same compound, the IC50 (AuroraB) was 7.9 µM.

`COc1cc(-c2nc(C(C)(C)CN)[nH]c2-c2ccncc2)ccc1Cl` showed an IC50 (PI3KD) of over 50.1 µM, an IC50 (HepG2 cells) of 39.8 µM and an IC50 (LCK) of 1 µM. The IC50 (AuroraB) was over 31.6 µM.

In the case of `CC(C)(CN1CCCCC1)c1nc(-c2ccnc(N)n2)c(-c2ccc(Cl)c(O)c2)[nH]1`, the IC50 (PI3KD; tested form: HCl) is reported as over 50.1 µM, the IC50 (HepG2 cells; tested form: HCl) is reported as 31.6 µM and the IC50 (LCK; tested form: HCl) is reported as 10 µM. It also gave an IC50 (AuroraB; tested form: HCl) of 7.9 µM.

`OCc1ccn2nc(-c3ccc(F)cc3)c(-c3ccncc3)c2c1` showed an IC50 (PI3KD) of over 50.1 µM, an IC50 (HepG2 cells) of over 100 µM and an IC50 (LCK) of 25.1 µM. For the same compound, the IC50 (AuroraB) was over 31.6 µM.

In the case of `NCc1ccc(-c2nc(-c3cc(O)ccc3Br)c(-c3ccncc3)[nH]2)cc1`, the IC50 (PI3KD; tested form: HCl) is reported as 25.1 µM, the IC50 (HepG2 cells; tested form: HCl) is reported as 12.6 µM and the IC50 (LCK; tested form: HCl) is reported as 3.2 µM. For the same compound, the IC50 (AuroraB; tested form: HCl) was 15.8 µM.

`N#Cc1ccc(-c2nc(-c3ccncc3)c(-c3ccccn3)[nH]2)cc1` showed an IC50 (PI3KD) of over 50.1 µM, an IC50 (HepG2 cells) of over 100 µM and an IC50 (LCK) of over 31.6 µM. The IC50 (AuroraB) was over 31.6 µM.

Compound `FC(F)(F)c1cccc(-c2ncn(CC3CC3)c2-c2ccncc2)c1` has an IC50 (PI3KD) of over 50.1 µM, an IC50 (HepG2 cells) of over 100 µM and an IC50 (LCK) of over 31.6 µM. The IC50 (AuroraB) was over 31.6 µM.

In the case of `CC(C)(NS(C)(=O)=O)c1nc(-c2ccc(Cl)c(O)c2)c(-c2ccncc2)[nH]1`, the IC50 (PI3KD; tested form: HCl) is reported as over 50.1 µM, the IC50 (HepG2 cells; tested form: HCl) is reported as 10 µM and the IC50 (LCK; tested form: HCl) is reported as 0.6 µM. For the same compound, the IC50 (AuroraB; tested form: HCl) was over 31.6 µM.

In the case of `CNc1nccc(-c2c(-c3ccc(F)cc3)ncn2[C@H](CO)CC(C)C)n1`, the IC50 (PI3KD) is reported as over 50.1 µM, the IC50 (HepG2 cells) is reported as over 100 µM and the IC50 (LCK) is reported as 15.8 µM. The IC50 (AuroraB) was 25.1 µM.

In the case of `COc1ccc(-c2nc(S(=O)(=O)C(C)C)[nH]c2-c2ccncc2)cc1`, the IC50 (PI3KD) is reported as over 50.1 µM, the IC50 (HepG2 cells) is reported as over 100 µM and the IC50 (LCK) is reported as 6.3 µM. For the same compound, the IC50 (AuroraB) was over 31.6 µM.

With `COCCN1CCC(CNCC(C)(C)c2nc(-c3ccc(Cl)c(O)c3)c(-c3ccncc3)[nH]2)CC1` the IC50 (PI3KD; tested form: HCl) was over 50.1 µM, the IC50 (HepG2 cells; tested form: HCl) was 31.6 µM and the IC50 (LCK; tested form: HCl) was 4 µM. For the same compound, the IC50 (AuroraB; tested form: HCl) was over 31.6 µM.
